“Also recorded” adds a separate entry of the source. Read-outs that look alike come from different tables or passages of the source.
How the values were obtained:
[1] = 1440 min
[2] = in vivo
[3] = field cycling at 35° C.
[4] = solubility and stability in hydrophilic and lipophilic solvents
[5] = rat, in vivo
[6] = rat, in vivo; remark: listed apart in the source
[7] = rat, in vivo; remark: listed apart in the source
[8] = i.v. 0.04 mmol/kg, Day 0, average
[9] = i.v. 0.04 mmol/kg, Day 1, average
[10] = i.v. 0.04 mmol/kg, Day 3, average
[11] = i.v. 0.04 mmol/kg, Day 7, average

manganese (III) mesoporphyrin [Mn mesoporphyrin]
octanol:water partition coefficient (ratio) [1]: 25.98:1
first pass uptake by the liver [2]: relatively high first pass uptake by the liver
T1 relaxivity (R1) [3]: 6 L (mmol/sec^-1)
changes in laboratory values (i.v. 0.04 mmol/kg, 6 rabbits vs 2 controls): no significant systematic changes
Alk. Phos. [8]: 58
Amylase [8]: 174.67
BUN [8]: 26.33
Bilirubin [8]: 0.23
CO2 [8]: 22.17
CRT (creatinine) [8]: 0.97
GAP [8]: 13.17
GOT [8]: 15.83
GPT [8]: 42
Glucose [8]: 107.67
K^+ [8]: 5.4
LDH [8]: 593.83
Na^+ [8]: 137.17
Alk. Phos. [9]: 57.33
Amylase [9]: 222.67
BUN [9]: 25.17
Bilirubin [9]: 0.18
CO2 [9]: 21.67
GAP [9]: 14.5
GOT [9]: 12.5
GPT [9]: 48.5
Glucose [9]: 122.83
K^+ [9]: 5.28
LDH [9]: 1026
Na^+ [9]: 140.67
Alk. Phos. [10]: 58.17
Amylase [10]: 212.17
BUN [10]: 26.67
Bilirubin [10]: 0.37
CO2 [10]: 21.83
CRT (creatinine) [10]: 1.13
GAP [10]: 15.33
GOT [10]: 23.33
GPT [10]: 55.33
Glucose [10]: 169.33
K^+ [10]: 6.33
LDH [10]: 414.83
Na^+ [10]: 140.5
Alk. Phos. [11]: 49.17
Amylase [11]: 189
BUN [11]: 24.33
Bilirubin [11]: 0.25
CO2 [11]: 22
CRT (creatinine) [11]: 0.98
GAP [11]: 12.5
GOT [11]: 11.33
GPT [11]: 44.5
Glucose [11]: 139.67
K^+ [11]: 4.73
LDH [11]: 275
Na^+ [11]: 134.17
safety conclusion (intravenous or oral, normal animals and animals with extensive liver disease): can be administered safely at an effective dose
change in pH over time in 10% DMSO ([4]; 10% DMSO in saline, compared with the other two lipid solvents): smaller change in pH over time; also recorded: minimal pH fluctuation
precipitation at physiologic proton concentrations ([4]; K2PO4 buffer and ethanol-containing solutions): precipitation was observed
time within which compound is largely cleared from the liver and into the feces [5]: ≤ 72 h
uptake and excretion route [5]: preferentially taken up by the normal liver and excreted through the hepatobiliary system
skin discoloration [6]: color of the rats' skin did not change
biliary excretion / enterohepatic circulation [7]: may be excreted in the bile and undergoes enterohepatic circulation
excretion with cholestyramine [7]: substantially further increased by administration of cholestyramine
time within which the majority of an i.v. dose is excreted in the feces ([7]; iv): ≤ 72 h

From patent US5169944A, “Methods and compositions for the enteral administration of hepatobiliary MRI contrast agents” (Board of Regents of the University of Washington, priority 1991, dated 1992)
